Source: patent US20150143553A1, “Methods And Compositions Comprising A Drosophila Model Of Amyotrophic Lateral Sclerosis” (priority 2013, published 2015)

Tested on: Drosophila larvae expressing wild-type TDP-43 in motor neurons
Experiment: Drug screen: rescue of lethality caused by wild-type TDP-43 expression in motor neurons (D42 Gal4)
Settings: transgene WT2

Row | SMILES | Preliminary rescue result: adults with normal wings (30 μM in fly food) | Preliminary rescue result: adults with normal wings (50 μM in fly food)
1 | CCCCC1C(=O)N(c2ccccc2)N(c2ccc(O)cc2)C1=O (stereo not shown) [Oxphenbutazone] | 1 Adult Normal Wings Adults | 
2 | CC(=O)c1ccc(S(=O)(=O)NC(=O)NC2CCCCC2)cc1 [Acetohexamide] |  | 1 Adult Normal Wings Adults
3 | CC(CN(C)C)C(C)(O)Cc1ccc(Cl)cc1 (stereo not shown) [Clobutinol HCl] |  | 2 Adults Normal Wings
4 | COC1=C(OC)C(=O)C(CCCCCCCCCCO)=C(C)C1=O [Idebenone] |  | 3 Adults Normal Wings

Where a name gives a salt, the structure may show the parent alone.
